The values that follow are results of earlier work, collected in article PMC8464905, “Novel c-Jun N-Terminal Kinase (JNK) Inhibitors with an 11H-Indeno[1,2-b]quinoxalin-11-one Scaffold” (Molecules, 2021).

Sequences of proteins named here, by UniProt entry; tags and fusion partners are left off. A change or cut given only in a name is not applied to a line headed by its entry.
UniProt P45984: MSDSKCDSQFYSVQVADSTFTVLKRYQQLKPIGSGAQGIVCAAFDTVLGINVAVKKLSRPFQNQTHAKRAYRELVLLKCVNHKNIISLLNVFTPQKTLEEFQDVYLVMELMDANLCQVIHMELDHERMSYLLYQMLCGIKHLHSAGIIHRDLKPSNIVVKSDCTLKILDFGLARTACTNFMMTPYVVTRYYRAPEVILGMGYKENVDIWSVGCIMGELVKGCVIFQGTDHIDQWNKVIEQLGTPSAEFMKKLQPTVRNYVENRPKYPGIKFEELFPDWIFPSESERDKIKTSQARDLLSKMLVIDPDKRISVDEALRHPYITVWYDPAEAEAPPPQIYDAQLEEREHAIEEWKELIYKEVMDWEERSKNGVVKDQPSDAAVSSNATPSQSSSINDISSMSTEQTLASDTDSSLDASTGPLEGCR
UniProt P53779: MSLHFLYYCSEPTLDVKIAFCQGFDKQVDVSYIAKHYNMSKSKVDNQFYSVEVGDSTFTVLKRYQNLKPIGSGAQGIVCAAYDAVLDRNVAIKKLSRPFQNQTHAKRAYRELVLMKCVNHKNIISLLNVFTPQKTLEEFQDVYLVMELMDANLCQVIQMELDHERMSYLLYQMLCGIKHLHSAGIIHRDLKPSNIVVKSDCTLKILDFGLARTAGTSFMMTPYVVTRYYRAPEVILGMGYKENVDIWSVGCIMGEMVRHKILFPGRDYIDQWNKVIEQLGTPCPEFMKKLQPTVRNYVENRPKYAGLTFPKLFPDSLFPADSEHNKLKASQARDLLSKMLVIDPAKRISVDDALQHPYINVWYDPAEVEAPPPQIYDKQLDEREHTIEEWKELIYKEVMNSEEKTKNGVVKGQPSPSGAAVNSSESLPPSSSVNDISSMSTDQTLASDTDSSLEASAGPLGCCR
UniProt P45983: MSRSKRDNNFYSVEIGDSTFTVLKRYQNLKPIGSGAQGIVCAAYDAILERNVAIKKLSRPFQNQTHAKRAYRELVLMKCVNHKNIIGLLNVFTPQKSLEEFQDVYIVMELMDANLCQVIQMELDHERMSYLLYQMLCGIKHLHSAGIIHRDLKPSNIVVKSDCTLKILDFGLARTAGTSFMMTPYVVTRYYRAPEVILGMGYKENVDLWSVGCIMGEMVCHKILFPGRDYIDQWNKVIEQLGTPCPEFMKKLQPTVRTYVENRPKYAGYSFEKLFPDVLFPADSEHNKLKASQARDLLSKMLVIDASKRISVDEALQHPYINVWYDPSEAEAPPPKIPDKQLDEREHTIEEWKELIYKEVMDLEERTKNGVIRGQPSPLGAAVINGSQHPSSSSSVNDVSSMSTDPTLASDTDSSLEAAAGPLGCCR

Like-named read-outs stand apart in the source and are kept apart here.

Common to all, as to conditions: cited from earlier work
Data set [1] has as its target T1, JNK2 (Homo sapiens, UniProt P45984).
T1 construct: purchased Eurofins Pharma Discovery (KINOMEscan)

The target in data set [2] is T2, JNK3 (Homo sapiens, UniProt P53779).
T2 construct: purchased Eurofins Pharma Discovery (KINOMEscan)

The target of data set [3] is T3, JNK1 (Homo sapiens, UniProt P45983).
T3 construct: purchased Eurofins Pharma Discovery (KINOMEscan)

For the compound `ON=C1c2ccccc2-c2nc3ccccc3nc21` [IQ-1, 11H-indeno[1,2-b]quinoxalin-11-one oxime], the Kd in data set [1] (previously identified inhibitors, ref [35],[36], read-out: Kd JNK2) is 400 nM; in data set [1] (ref [35], read-out: JNK2 Kd), 360 nM; in data set [2] (previously identified inhibitors, ref [35],[36], read-out: Kd JNK3), 100 nM; in data set [2] (ref [35], read-out: JNK3 Kd), 100 nM; in data set [3] (previously identified inhibitors, ref [35],[36], read-out: Kd JNK1) it was 200 nM; in data set [3] (ref [35], read-out: JNK1 Kd) it was 240 nM.

For orientation: Kd means the constant that tells how readily two partners part at equilibrium.
